Protein sequences, listed by entry. Tags and fused reporters are not part of them. Residues count along the entry.
UniProt P81908, whole entry, looked up: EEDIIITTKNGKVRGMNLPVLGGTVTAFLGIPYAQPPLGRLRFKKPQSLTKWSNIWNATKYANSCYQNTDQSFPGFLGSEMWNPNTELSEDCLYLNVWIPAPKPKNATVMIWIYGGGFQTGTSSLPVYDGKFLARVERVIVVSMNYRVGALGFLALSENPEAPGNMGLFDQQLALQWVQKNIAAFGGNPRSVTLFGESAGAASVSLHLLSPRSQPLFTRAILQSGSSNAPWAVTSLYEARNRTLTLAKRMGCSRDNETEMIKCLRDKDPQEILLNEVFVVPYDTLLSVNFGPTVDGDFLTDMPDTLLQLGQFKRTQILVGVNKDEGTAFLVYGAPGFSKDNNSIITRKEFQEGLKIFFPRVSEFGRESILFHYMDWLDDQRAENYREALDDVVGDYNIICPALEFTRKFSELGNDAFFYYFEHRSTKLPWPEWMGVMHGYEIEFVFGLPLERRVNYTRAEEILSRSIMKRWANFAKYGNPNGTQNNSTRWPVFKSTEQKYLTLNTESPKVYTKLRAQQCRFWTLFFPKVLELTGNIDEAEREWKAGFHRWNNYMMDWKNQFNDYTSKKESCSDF
UniProt O42275, 24-633 limits assumed: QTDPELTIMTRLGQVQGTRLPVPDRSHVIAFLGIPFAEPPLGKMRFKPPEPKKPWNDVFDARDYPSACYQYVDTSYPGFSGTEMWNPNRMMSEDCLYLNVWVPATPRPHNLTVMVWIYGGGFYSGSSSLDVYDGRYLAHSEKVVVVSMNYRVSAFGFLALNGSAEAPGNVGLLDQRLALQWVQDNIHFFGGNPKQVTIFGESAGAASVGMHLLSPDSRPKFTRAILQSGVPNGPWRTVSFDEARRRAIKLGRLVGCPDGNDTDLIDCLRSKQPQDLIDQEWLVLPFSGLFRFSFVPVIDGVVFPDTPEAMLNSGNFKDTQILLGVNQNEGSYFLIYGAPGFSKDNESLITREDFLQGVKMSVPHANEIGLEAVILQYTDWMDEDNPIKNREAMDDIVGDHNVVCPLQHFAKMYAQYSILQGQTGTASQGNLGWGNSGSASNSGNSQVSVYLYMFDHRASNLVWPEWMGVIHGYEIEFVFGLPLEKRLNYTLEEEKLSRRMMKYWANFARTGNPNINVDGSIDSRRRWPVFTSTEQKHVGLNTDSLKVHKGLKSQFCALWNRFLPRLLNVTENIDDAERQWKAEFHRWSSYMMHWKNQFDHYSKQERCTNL

According to PMC12537693, “3-Hydroxytyrosol as a phenolic cholinesterase inhibitor with antiamnesic activity: a multimethodological study of selected plant phenolics” (Frontiers in Pharmacology, 2025):

Key:
horse serum BChE = horse serum BChE (Equus caballus, UniProt P81908); test: Microtiter assay for BChE inhibition (Ellman's method); type: biochemical; details: for IC50: read-out: IC50, BChE, ± SD
electric eel AChE = electric eel AChE (Electrophorus electricus, UniProt O42275); test: Microtiter assay for AChE inhibition (Ellman's method); type: biochemical; details: for IC50: read-out: IC50, AChE, ± SD
[1] = system: scopolamine-induced amnesic mice; test: Passive avoidance test in scopolamine-induced amnesic mice; type: in vivo; details: for Mean latency time (min) ± SEM (1st day): acquisition day, before treatment
BChE [2] = details: read-out: Ki, BChE; ref Gulcin et al., 2016; cited from earlier work
BChE [3] = details: rosmarinic acid isolated from Perovskia atriplicifolia Benth.; ref Senol et al., 2017; cited from earlier work
AChE [4] = details: read-out: Ki, AChE; ref Gulcin et al., 2016; cited from earlier work
BChE [5] = details: read-out: IC50, ChE (second value, taken as BChE); order of enzymes not stated; ref Okello and Mather, 2020; cited from earlier work
AChE [6] = details: read-out: IC50, ChE (first value, taken as AChE); order of enzymes not stated; ref Okello and Mather, 2020; cited from earlier work
[7] = 20 mg/kg i.p., scopolamine 1 mg/kg i.p. 30 min later, 24 h after scopolamine, cutoff 9 min
[8] = group given 20 mg/kg i.p., n = 8

Molecule | Enzyme inhibition (% ± SD) at 10 mM, BChE (horse serum BChE; n = 3) | Enzyme inhibition (% ± SD) at 10 mM, AChE (electric eel AChE; n = 3) | further results
O=c1cc(-c2ccc(O)c(O)c2)oc2c([C@@H]3O[C@H](CO)[C@@H](O)[C@H](O)[C@H]3O)c(O)cc(O)c12 | — (No inhibition) | — (No inhibition) | 
O=C(O)/C=C/c1ccc(O)c(O)c1 | 47.82 ± 2.75% |  | 
Oc1ccc(/C=C/c2cc(O)cc(O)c2)cc1 |  | 54.02 ± 3.59% | IC50 (horse serum BChE; n = 3): 9.87 mM; IC50 (electric eel AChE; n = 3): 5.19 mM
COc1ccc([C@@H]2CC(=O)c3c(O)cc(O)cc3O2)cc1O | 25.58 ± 3.92% | 19.19 ± 2.75% | 
COc1ccc(-c2cc(=O)c3c(O)cc(O)cc3o2)cc1O | 18.94 ± 2.07% | — (No inhibition) | 
O=c1c(O)c(-c2ccc(O)cc2)oc2cc(O)cc(O)c12 [Kaempferol] |  | 30.91 ± 1.83% | 
O=c1cc(-c2ccc(O)c(O)c2)oc2cc(O)cc(O)c12 [Luteolin] |  | — (No inhibition) | Enzyme inhibition (% ± SD) at 10 mM, AChE (electric eel AChE; n = 3, listed as luteolin): no inhibition
O=c1cc(-c2ccc(O)cc2)oc2c([C@@H]3O[C@H](CO)[C@@H](O)[C@H](O)[C@H]3O)c(O)cc(O)c12 |  | 17.32 ± 2.77% | 
O=C1c2c(O)cc(O)cc2OC(c2ccc(O)c(O)c2)C1O (stereo not drawn) | 14.36 ± 1.71% | 50.43 ± 1.12% | IC50 (electric eel AChE; n = 3): 7.18 mM
O=c1c(O[C@@H]2O[C@H](CO)[C@@H](O)[C@H](O)[C@H]2O)c(-c2ccc(O)c(O)c2)oc2cc(O)cc(O)c12 | 31.77 ± 0.39% | 43.17 ± 1.65% | 
Catechin | — (No inhibition) | — (No inhibition) | 
COc1ccc(-c2cc(=O)c3c(OC)c(OC)c(OC)c(OC)c3o2)cc1 | 9.97 ± 4.09% | — (No inhibition) | 
O=c1c(-c2ccc(O)cc2)coc2cc(O)ccc12 | 19.62 ± 7.10% |  | 
CN1[C@@H]2C[C@@H](OC(=O)[C@H](CO)c3ccccc3)C[C@H]1[C@@H]1O[C@@H]12 |  |  | Mean latency time (min) ± SEM (1st day) ([1]; control group given scopolamine 1 mg/kg only): 0.38 ± 0.04 min; Mean latency time (min) ± SEM (2nd day) ([1]; control: scopolamine 1 mg/kg i.p. alone, 24 h after): 0.91 ± 0.14 min
COc1cc(C(=O)O)ccc1O [Vanillic acid] |  | - ^b (No inhibition) | 
O=C(/C=C/c1ccc(O)c(O)c1)O[C@H](Cc1ccc(O)c(O)c1)C(=O)O | 68.91 ± 4.51% | 69.99 ± 1.84% | Mean latency time (min) ± SEM (2nd day) [1, 7]: 6.02 ± 1.16 min; Mean latency time (min) ± SEM (1st day) [1, 8]: 0.48 ± 0.11 min; IC50 (horse serum BChE; n = 3): 6.14 mM; Ki (BChE [2]): 0.122 nM; IC50 (electric eel AChE; n = 3): 3.08 mM; IC50, BChE (BChE [3]): 6.59 ± 0.37 µg/mL (≈ 18.3 µM); Ki (AChE [4]): 0.0425 nM
O=c1cc(-c2ccc(O)cc2)oc2cc(O)cc(O)c12 [Apigenin] |  | 76.97 ± 1.50% | IC50 (electric eel AChE; n = 3): 3.52 mM
Epigallocatechin gallate | 84.43 ± 0.86% | 69.11 ± 3.91% | Mean latency time (min) ± SEM (2nd day) [1, 7]: 4.01 ± 0.77 ^c min; Mean latency time (min) ± SEM (1st day) [1, 8]: 0.38 ± 0.04 min; IC50 (horse serum BChE; n = 3): 5.04 mM; IC50 (BChE [5]): 25.1 µM; IC50 (AChE [6]): 14.8 µM; IC50 (electric eel AChE; n = 3): 4.85 mM
Trans-ferulic acid | 14.91 ± 11.10% | 6.26 ± 2.55% | 

Molecule | Enzyme inhibition (% ± SD) at 10 mM, BChE (horse serum BChE; n = 3) | Enzyme inhibition (% ± SD) at 10 mM, AChE (electric eel AChE; n = 3) | further results
3-Hydroxytyrosol | 94.35 ± 2.40% | 62.40 ± 0.68% | Mean latency time (min) ± SEM (2nd day) [1, 7]: 8.39 ± 0.31 min; Mean latency time (min) ± SEM (1st day) [1, 8]: 0.44 ± 0.03 min; IC50 (horse serum BChE; n = 3): 6.96 mM; IC50 (electric eel AChE; n = 3): 4.56 mM
COc1cc(-c2cc(=O)c3c(O)cc(O)cc3o2)cc(OC)c1O | 10.48 ± 4.13% | — (No inhibition) | 
p-Tyrosol | 35.58 ± 3.54% | — (No inhibition) | 
COc1ccc2c3c1O[C@H]1C[C@@H](O)C=C[C@@]31CCN(C)C2 |  |  | Mean latency time (min) ± SEM (2nd day) ([1]; 10 mg/kg s.c., scopolamine 1 mg/kg i.p. 30 min later, 24 h after scopolamine, cutoff 9 min): 6.42 ± 1.06 min; Mean latency time (min) ± SEM (1st day) ([1]; group given 10 mg/kg s.c., n = 8): 0.35 ± 0.08 min
O=c1c(O)c(-c2ccc(O)c(O)c2)oc2cc(O)cc(O)c12 [Quercetin] |  |  | IC50 (horse serum BChE; n = 3): 2.51 mM
O=C(O)c1cc(O)c(O)c(O)c1 [Gallic acid] |  |  | IC50 (horse serum BChE; n = 3): 3.29 mM; IC50 (electric eel AChE; n = 3): 4.22 mM
O=c1c(O)c(-c2ccc(O)c(O)c2)oc2cc(O)ccc12 [Fisetin] |  | 96.21 ± 0.06 (IC50: 1.28 ± 1.28 mM) % | 
C/C=C1/[C@H](O[C@@H]2O[C@H](CO)[C@@H](O)[C@H](O)[C@H]2O)OC=C(C(=O)OC)[C@H]1CC(=O)OCCc1ccc(O)c(O)c1 | 90.54 ± 2.51% | 84.10 ± 3.11% | Mean latency time (min) ± SEM (2nd day) [1, 7]: 7.68 ± 0.55 min; Mean latency time (min) ± SEM (1st day) [1, 8]: 0.39 ± 0.07 min; IC50 (horse serum BChE; n = 3): 6.48 mM; IC50 (electric eel AChE; n = 3): 5.39 mM
D-(-)-quinic acid | 5.84 ± 4.60% | 5.44 ± 4.01% | 
C[C@@H]1O[C@@H](O[C@H]2[C@H](Oc3cc(O)c4c(c3)O[C@H](c3ccc(O)cc3)CC4=O)O[C@H](CO)[C@@H](O)[C@@H]2O)[C@H](O)[C@H](O)[C@H]1O | 14.94 ± 0.13% | 4.27 ± 4.28% | 
O=C(O)C=Cc1ccc(O)cc1 | 5.15 ± 3.96% | — (No inhibition) | 
O=c1c(O)c(-c2cc(O)c(O)c(O)c2)oc2cc(O)cc(O)c12 | — (No inhibition) | — (No inhibition) | Enzyme inhibition (% ± SD) at 10 mM, BChE (horse serum BChE; n = 3, listed as myricetin): no inhibition; Enzyme inhibition (% ± SD) at 10 mM, AChE (electric eel AChE; n = 3, listed as myricetin): no inhibition
COc1cc(C(=O)O)cc(OC)c1O | 17.56 ± 4.24% | 2.39 ± 4.18% | 
Oc1ccc(-c2[o+]c3cc(O)cc(O)c3cc2O)cc1 [Pelargonidin] |  | 34.25 ± 0.50% | 
O=c1c(O)c(-c2ccc(O)cc2O)oc2cc(O)cc(O)c12 | 2.81 ± 3.83% | 9.72 ± 0.96% | 
O=C(/C=C/c1ccc(O)c(O)c1)O[C@@H]1C[C@](O)(C(=O)O)C[C@@H](O)[C@H]1O [Chlorogenic acid] |  | 18.67 ± 1.76% | 
COc1cc2c(=O)c(-c3ccc(O)cc3)coc2cc1O | 29.77 ± 0.01% | — (No inhibition) | 
O=c1oc2c(O)c(O)cc3c(=O)oc4c(O)c(O)cc1c4c23 [Ellagic acid] |  | — (No inhibition) | Enzyme inhibition (% ± SD) at 10 mM, AChE (electric eel AChE; n = 3, listed as ellagic acid): no inhibition

Converted amounts (≈) assume the structure as drawn. Marks after values point to notes of the source that are not given here.
